Laboratory results taken from article PMC2896345 (BMC Structural Biology, 2010).

Key:
[1] = biological target: T1, human RACK1 (receptor of activated kinase 1), 6xHis-tagged (human, UniProt P63244 1-317); assay: other fluorescence titration; intrinsic tryptophan fluorescence (excitation 295 nm) of 1 uM RACK1 titrated with Ki-1/57(122-413); 25 °C, 20 mM Tris-HCl pH 7.5; difference at 334 nm from 0.3 to 1.4 uM fitted with a modified Hill equation; conditions: both partners purified
[2] = biological target: T1, human RACK1 (receptor of activated …); assay: AUC; sedimentation equilibrium, 4 °C, 12,000, 15,000 and 18,000 rpm; both proteins at 300 ug/mL (~8.0 uM) in 20 mM Tris-HCl pH 7.5, 500 mM NaCl, 3% glycerol; 1:1 hetero-association model (SedPhat); conditions: both partners purified

Kd [1]: ~600 nM
Ka [2]: ~1.5e+06 M⁻¹
Kd [2]: 700 ± 100 nM
stoichiometry N [2]: 1
B1: Ki-1/57(122-413) (domain or fragment)
chain: PRRGEQQGWNDSRGPEGMLERAERRSYREYRPYETERQADFTAEKFPDEKPGDRFDRDRPLRGRGGPRGGMRGRGRGGPGNRVFDAFDQRGKREFERYGGNDKIAVRTEDNMGGCGVRTWGSGKDTSDVEPTAPMEEPTVVEESQGTPEEESPAKVPELEVEEETQVQEMTLDEWKNLQEQTRPKPEFNIRKPESTVPSKAVVIHKSKYRDDMVKDDYEDDSHVFRKPANDITSQLEINFGNLPRPGRGARGGTRGGRGRIRRAENYGPRAEVVMQDVAPNPDDPEDFPALS
notes: recombinant protein 37.3 kDa; source: bacterial expression (pPROEx), purified in two steps as described previously
